## Antibody variant affinities, Ab-14 light chain, assay B

Reference: Li et al. 2023, doi:10.1038/s41467-023-39022-2. File: FLAb, binding data.

Binding partner: SARS-CoV-2 spike HR2 peptide, sequence PDVDLGDISGINAS.

Each scFv is VH, three GGGGS repeats, VL, as in the parent Ab-14, and differs from it in the CDRs of the light chain only.
VH: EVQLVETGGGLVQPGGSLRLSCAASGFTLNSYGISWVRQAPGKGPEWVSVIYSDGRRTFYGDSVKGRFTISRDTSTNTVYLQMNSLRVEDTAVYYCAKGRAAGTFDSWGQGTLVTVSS
VL: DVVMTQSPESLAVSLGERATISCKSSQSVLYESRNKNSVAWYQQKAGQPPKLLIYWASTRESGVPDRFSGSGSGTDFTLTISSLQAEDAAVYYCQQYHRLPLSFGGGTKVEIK

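The starting antibody came from a phage panning campaign against this peptide. Designed CDR sequences, proposed from the first random library and measured here. Group labels follow the data file (Ctrl: baseline library sampled from a position-specific scoring matrix, with some repeated check sequences; En: ensemble of fine-tuned language models; GP: Gaussian process model; GPLM: also part of the Gaussian process libraries; HC: hill climbing; Gen: genetic algorithm; Gibbs: Gibbs sampling; a sequence that several methods proposed may carry one label only). AlphaSeq pools MATa yeast showing the antibodies with MATalpha yeast showing the peptide. After mating in shaken culture at 30 °C for 16 h, diploids were selected and their barcode pairs sequenced. A regression on co-assayed BCL2-family reference pairs converts the normalised counts of each replicate to an apparent Kd. There are six technical replicates.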

Each variant is given by its three light chain CDRs, as the data file delimits them; those of the parent are KSSQSVLYESRNKNSVA, WASTRES, QQYHRLPLS. Values are log10 of the apparent Kd in nM; lower means stronger binding. A mean of the replicates is given; it leaves out those without a signal. "nd" means that the variant was in the library but no mating with the target was seen in any replicate; the authors take this as a sign of poor binding, and no number exists. Order: sorted from the lowest average up, undetected variants last. The parent sequence was in this pool as ten entries: three were never detected, three once, and four in most replicates, with averages from 0.34 to 2.37. Nonspecific signal, from three strains lacking the peptide, appeared in 4% of pairings of all light chain designs, centred on 2.64 (5% of these signals below 1.59); values are not corrected for it. A sequence measured in both rounds can read differently, since the two assays cover different ranges. The authors' rule: three or more of the six replicates give a measured affinity, fewer mean a poor binder.

log10 Kd (nM), mean | replicates with signal | CDR-L1 | CDR-L2 | CDR-L3 | group
-0.40 | 6/6 | KLSQMVDYESRNMNNVA | NASTRES | QQYHRLPLS | GP_Gibbs
-0.36 | 6/6 | KVSQSMLYESRNKNSVA | NASTRES | QQYHRLPLS | GP_Gen
-0.36 | 6/6 | KLEQGQLYESRNKNSVA | NASTRES | QQYHRLPLS | GP_Gen
-0.30 | 6/6 | KLSQSFLYEQRNKNSVA | NASTRMS | QQYHRLPLS | GP_Gen
-0.28 | 6/6 | KLQQSVGYESRNKNSVA | NASTRES | QQYHRLPLS | GP_Gen
-0.27 | 6/6 | KLSQSWLYESRNKNNVA | DASTRES | QQYHRLPLS | GP_Gen
-0.24 | 6/6 | KLSQSVEYESRNSNSVA | NASTRES | QQYHRLPLS | GP_Gen
-0.14 | 6/6 | KLSQSVLYESRMKNSVA | NASQREE | QQYHRLPLS | GP_Gen
-0.12 | 6/6 | KVPQSGLYESRNKNSVA | NASTRES | QQYHRLPLS | GP_Gen
-0.06 | 6/6 | KLPQWDLYEGRNKNSVA | NASTRFD | QQYHRLPLS | GP_Gibbs
0.00 | 6/6 | KLTMITGLEKVQKNNVA | EMETREQ | QQYNRLPLS | En_Gen
0.00 | 6/6 | KQSQSFLCESRNKNSVA | DASTRES | QQYHRLPLS | GP_HC
0.04 | 6/6 | KLSQSMLYESRQKNSVA | NASQRES | QQYHRLPLS | GP_Gen
0.10 | 6/6 | SITQLVAYGSRNRNSVA | QMSTRES | QQYDRLPLS | En_HC
0.12 | 6/6 | KLSQSTLYESRNKNSVA | NASTREM | QQYHRLPLS | GP_Gen
0.16 | 6/6 | KSSQSVLDESRNKNSVA | DASTRES | QQYHRLPLS | GPLM_HC
0.17 | 6/6 | KFSQWVLYESRNKNSVA | NASTRES | QQYHRLPLS | GP_HC
0.19 | 6/6 | KLPQSVLYESRNKNSVA | QASQRES | QQYHRLPLS | GP_Gen
0.22 | 6/6 | KVPGSNDYESRNKNSVA | HASTRES | QDYHRLPLS | GP_Gibbs
0.28 | 6/6 | KVSQSTLYESRNKNSVA | MASTRES | QQYHRLPLS | GP_HC
0.31 | 6/6 | KSSISTLEESRNKNSVA | EASTRES | QQYHRLPLS | GP_HC
0.32 | 6/6 | KIGMTLNMMMHKKNNVA | DLVTREN | QQYHRLPLS | En_Gen
0.36 | 6/6 | KISQAVNYLTRVMNSVA | DNSTRES | QQYFRLPLS | En_HC
0.41 | 6/6 | KLSMVTGHMSMAKNNVA | EMETREK | QQYERLPLS | En_Gen
0.48 | 6/6 | HLELEEMQMMKDHNSIA | DTEHKTR | QQYFRLPIS | En_Gibbs
0.58 | 4/6 | TISQSFNMTSRGKNSVA | QAEMRES | QQYDRLPLS | En_HC
0.70 | 6/6 | KWLQSVLYESRDKNSVA | HASTRED | QQYHRLPLS | GP_HC
0.71 | 6/6 | KLSVSTSYLSVNKNSVA | EMTTREN | QQYDRLPLS | En_HC
0.75 | 6/6 | MVNGIMDHLSKQTNNVA | ETTTRNS | QQYDRLPLT | En_Gen
0.77 | 6/6 | QLQLQPQTGANAQHSIA | DVSEKDM | QQYARLPLH | En_Gibbs
0.88 | 6/6 | KLSGATRMESRNKASVA | ENSTRES | QQYFRLPLS | En_HC
0.91 | 6/6 | MLSDLVKMGSRNTNSVA | DNSTRGG | QQYDRLPLS | En_HC
0.97 | 6/6 | IISQVDAYESRTKNSIA | DQSTRGS | QQYDRLPLS | En_HC
0.97 | 6/6 | QLSSITGHMSMIKNNVA | EMETRED | QQYERLPLS | En_Gen
1.13 | 5/6 | KLSDSIEKMASNADNIA | DETETNM | QQYYTLPLS | En_Gibbs
1.16 | 5/6 | MITEGQLGENKNSSNIA | SQNQKTD | QQYQRLPLV | En_Gibbs
1.27 | 6/6 | KSSSSVLYESRNKNSVA | KASTRES | QQYHRLPLI | Ctrl
1.39 | 6/6 | ILSQMMLTAGNKHSSVA | QANNRED | QQYHRLPLS | En_HC
1.52 | 1/6 | IVSQLMLWGLHAKNSIA | EAQTRVN | QQYDRLPLF | En_Gen
1.53 | 6/6 | IFSQSVLMGNMTRNSVA | QASTRFN | QQYHRLPLI | En_HC
1.88 | 4/6 | YLSMYLDMSDDIQYGVA | DANVANA | QQYFRLPLA | En_Gibbs
2.13 | 6/6 | KSSQSVPYESRNPNSVA | WASTRES | QQYHRLPLS | Ctrl
2.28 | 5/6 | KFSESVLYESRNKNSVA | MAQTRES | SSYHRLPLS | Ctrl
2.54 | 5/6 | KIRVHNLMFSQNESSIA | GMSVRSE | QQYYHLPLT | En_Gibbs
nd | 0/6 | KSSQSVLYESRNKNSVA | WASTRES | QQYSRLQCS | Ctrl
nd | 0/6 | MVTQMAMTGMTNKRSVA | NAETREY | QQYHRLPLI | En_Gen

Repeated from above, the 3 best binders with a signal in all replicates:

{"CDR-L1": "KLSQMVDYESRNMNNVA", "CDR-L2": "NASTRES", "CDR-L3": "QQYHRLPLS", "group": "GP_Gibbs", "log10 Kd (nM), mean": "-0.40", "replicates with signal": "6/6"}
{"CDR-L1": "KVSQSMLYESRNKNSVA", "CDR-L2": "NASTRES", "CDR-L3": "QQYHRLPLS", "group": "GP_Gen", "log10 Kd (nM), mean": "-0.36", "replicates with signal": "6/6"}
{"CDR-L1": "KLEQGQLYESRNKNSVA", "CDR-L2": "NASTRES", "CDR-L3": "QQYHRLPLS", "group": "GP_Gen", "log10 Kd (nM), mean": "-0.36", "replicates with signal": "6/6"}